Experimental data published in US20260022143A1, “Cyclic Peptide Inhibitors of IL-23” (JANSSEN PHARMACEUTICA NV, priority 2022, published 2026).

Molecular target: T1, IL-23R (Homo sapiens, UniProt Q5VWK5)
T1 construct: host or cells: HEK293
T1 sequence (Q5VWK5 24-629): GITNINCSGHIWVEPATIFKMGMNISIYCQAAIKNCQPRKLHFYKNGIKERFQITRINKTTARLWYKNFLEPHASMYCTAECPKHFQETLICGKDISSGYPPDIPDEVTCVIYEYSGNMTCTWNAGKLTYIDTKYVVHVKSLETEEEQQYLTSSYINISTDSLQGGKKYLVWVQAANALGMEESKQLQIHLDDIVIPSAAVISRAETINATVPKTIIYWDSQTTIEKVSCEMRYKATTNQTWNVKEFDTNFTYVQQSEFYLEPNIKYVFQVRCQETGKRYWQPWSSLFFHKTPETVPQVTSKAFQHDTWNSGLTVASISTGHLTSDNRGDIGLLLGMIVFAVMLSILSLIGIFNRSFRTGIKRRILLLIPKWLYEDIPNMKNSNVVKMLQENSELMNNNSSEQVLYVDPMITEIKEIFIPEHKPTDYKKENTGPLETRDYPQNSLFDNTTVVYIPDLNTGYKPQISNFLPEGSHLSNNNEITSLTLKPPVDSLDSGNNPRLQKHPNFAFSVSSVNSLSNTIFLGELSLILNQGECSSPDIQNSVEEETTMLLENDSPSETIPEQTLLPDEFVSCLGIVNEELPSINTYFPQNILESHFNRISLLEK
Assay: IL23R Reporter Assay
Assay type: cell-based
Conditions: HEK293 cells containing IL-23R, IL-12RP1 and STAT-inducible firefly luciferase reporter; 10 ng/mL IL-23 (EC90); 5 h at 37° C.; read-out: IL23R Reporter Assay

| SMILES | IC50 [nM] |
| --- | --- |
| CC(=O)NCCCC[C@@H]1NC(=O)[C@H](Cc2c[nH]c3c(C)cccc23)NC(=O)[C@H]([C@@H](C)O)NC(=O)[C@H](CC(N)=O)NC(=O)[C@@H](NC(C)=O)C(C)(C)SSC(C)(C)[C@@H](C(=O)N[C@@H](Cc2ccc(-n3cc(CCC[N+]4(C)CCOCC4)nn3)cc2)C(=O)N[C@@H](Cc2ccc3ccccc3c2)C(=O)NC2(C(=O)N[C@@H](CCC(=O)O)C(=O)N[C@@H](CC(N)=O)C(=O)N[C@@H](Cc3cccnc3)C(=O)N(C)CC(N)=O)CCOCC2)NC1=O [compound 453] | 2.3 |
| CC(=O)NCCCC[C@@H]1NC(=O)[C@H](Cc2c[nH]c3c(C)cccc23)NC(=O)[C@H]([C@@H](C)O)NC(=O)[C@H](CC(N)=O)NC(=O)[C@@H](NC(C)=O)C(C)(C)SSC(C)(C)[C@@H](C(=O)N[C@@H](Cc2ccc(OCCCCCCCC[N+](C)(C)C)cc2)C(=O)N[C@@H](Cc2ccc3ccccc3c2)C(=O)NC2(C(=O)N[C@@H](CCC(=O)O)C(=O)N[C@@H](CC(N)=O)C(=O)N[C@@H](Cc3cccnc3)C(=O)N(C)CC(N)=O)CCOCC2)NC1=O [compound 457] | 1.3 |
| CC(=O)NCCCC[C@@H]1NC(=O)[C@H](Cc2c[nH]c3c(C)cccc23)NC(=O)[C@H]([C@@H](C)O)NC(=O)[C@H](CC(N)=O)NC(=O)[C@@H](NC(=O)[C@@H](CCCNC(=N)N)NC(C)=O)C(C)(C)SSC(C)(C)[C@@H](C(=O)N[C@@H](Cc2ccc(OCCCCC[N+](C)(C)C)cc2)C(=O)N[C@@H](Cc2ccc3ccccc3c2)C(=O)NC2(C(=O)N[C@@H](CCC(=O)O)C(=O)N[C@@H](CC(N)=O)C(=O)N[C@@H](Cc3cccnc3)C(=O)N(C)CC(N)=O)CCOCC2)NC1=O [compound 462, MeCO-r-Pen(3)-N-T-7MeW-K(Ac)-Pen(3)-TMAPF-2Nal-THP-E-N-3Pya-Sar-CONH2] | 1.3 |
| CC(=O)N(C)CCCC[C@H](NC(=O)[C@H](Cc1c[nH]c2ccccc12)NC(=O)[C@H](Cc1ccc2ccccc2c1)NC(=O)[C@H](Cc1ccc(OCCOCCOCC[N+](C)(C)C)cc1)NC(=O)[C@H]1NC(=O)[C@H](Cc2c[nH]c3ccccc23)NC(=O)[C@H](Cc2c[nH]c3c(C)cccc23)NC(=O)[C@H]([C@@H](C)O)NC(=O)[C@H](Cc2c[nH]c3ccccc23)NC(=O)[C@@H](NC(=O)CCOCCOCC[N+](C)(C)C)C(C)(C)SSC1(C)C)C(=O)N[C@@H](CC(N)=O)C(=O)N[C@@H](Cc1cccnc1)C(=O)N(C)CC(=O)N(C)C [compound 465, cPEG3aCO-Pen(3)-W-T-7MeW-W-Pen(3)-APEG3f-2Nal-W-K(NMeAc)-N-3Pya-Sar-CON(Me)2] | 17 |
| CC(=O)NCCCC[C@@H]1NC(=O)[C@H](Cc2c[nH]c3c(C)cccc23)NC(=O)[C@H]([C@@H](C)O)NC(=O)[C@H](CC(N)=O)NC(=O)[C@H](NC(C)=O)CSSC[C@@](C)(C(=O)N[C@@H](Cc2ccc(OCCCCC[N+](C)(C)C)cc2)C(=O)N[C@@H](Cc2ccc3ccccc3c2)C(=O)NC2(C(=O)N[C@@H](CCCCNC(C)=O)C(=O)N[C@@H](CC(N)=O)C(=O)N[C@@H](Cc3cccnc3)C(=O)N(C)CC(N)=O)CCOCC2)NC1=O [compound 478, MeCO-C(3)-N-T-7MeW-K(Ac)-aMeC(3)-TMAPF-2Nal-THP-K(Ac)-N-3Pya-Sar-CONH2] | 2.3 |
| CC(=O)NCCCC[C@@H]1NC(=O)[C@H](Cc2c[nH]c3c(-c4cccc(NC(C)=O)c4)cccc23)NC(=O)[C@H]([C@@H](C)O)NC(=O)[C@H](CC(N)=O)NC(=O)[C@@H](NC(=O)[C@@H](CCCC[N+](C)(C)C)NC(C)=O)C(C)(C)SSC(C)(C)[C@@H](C(=O)N[C@@H](Cc2ccc(OCCNC(=N)N)cc2)C(=O)N[C@@H](Cc2ccc3ccccc3c2)C(=O)NC2(C(=O)N[C@@H](CCC(=O)O)C(=O)N[C@@H](CC(N)=O)C(=O)N[C@@H](Cc3cncc(C)c3)C(=O)N(C)CC(N)=O)CCOCC2)NC1=O [compound 480, MeCO-k(Me)3-Pen(3)-N-T-7(3NAcPh)W-K(Ac)-Pen(3)-AEF(G)-2Nal-THP-E-N-5MePyridinAla-Sar-CONH2] | 3.6 |
| CC(=O)NCCCC[C@@H]1NC(=O)[C@H](Cc2c[nH]c3c(-c4cccc(NC(C)=O)c4)cccc23)NC(=O)[C@H]([C@@H](C)O)NC(=O)[C@H](CC(N)=O)NC(=O)[C@@H](NC(C)=O)C(C)(C)SSC(C)(C)[C@@H](C(=O)N[C@@H](Cc2ccc(OCCNC(=N)N)cc2)C(=O)N[C@@H](Cc2ccc3ccccc3c2)C(=O)NC2(C(=O)N[C@@H](CCCCN(C)C(C)=O)C(=O)N[C@@H](CC(N)=O)C(=O)N[C@@H](Cc3cncc(C)c3)C(=O)N(C)CC(N)=O)CCOCC2)NC1=O [compound 482, MeCO-Pen(3)-N-T-7(3NAcPh)W-K(Ac)-Pen(3)-AEF(G)-2Nal-THP-K(NMeAc)-N-5MePyridinAla-Sar-CONH2] | 3.9 |
| CC(=O)N(C)CCCC[C@@H]1NC(=O)[C@H](Cc2c[nH]c3c(C)cccc23)NC(=O)[C@H]([C@@H](C)O)NC(=O)[C@H](CC(=O)N(C)C)NC(=O)[C@@H](NC(=O)CCOCCOCC[N+](C)(C)C)C(C)(C)SSC[C@@H](C(=O)N[C@@H](Cc2ccc(OCCCCC[N+](C)(C)C)cc2)C(=O)N[C@@H](Cc2ccc3ccccc3c2)C(=O)NC2(C(=O)N[C@@H](CCCCN(C)C(C)=O)C(=O)N[C@@H](CC(N)=O)C(=O)N[C@@H](Cc3cccnc3)C(=O)N(C)CC(=O)N(C)C)CCOCC2)NC1=O [compound 485, cPEG3aCO-Pen(3)-N(N(Me)2)-T-7MeW-K(NMeAc)-C(3)-TMAPF-2Nal-THP-K(NMeAc)-N-3Pya-Sar-CON(Me)2] | 3.6 |
| CC(=O)NCCCC[C@@H]1NC(=O)[C@H](Cc2c[nH]c3c(C)cccc23)NC(=O)[C@H]([C@@H](C)O)NC(=O)[C@H](CC(N)=O)NC(=O)[C@@H](NC(=O)COCCOCCNC(=O)COCCOCCNC(=O)COc2ccc(-c3ccc(F)cc3F)cc2C(=O)O)C(C)(C)SSC(C)(C)[C@@H](C(=O)N[C@@H](Cc2ccc(OCCCCC[N+](C)(C)C)cc2)C(=O)N[C@@H](Cc2ccc3ccccc3c2)C(=O)NC2(C(=O)N[C@@H](CCCCN(C)C(C)=O)C(=O)N[C@@H](CC(N)=O)C(=O)N[C@@H](Cc3cccnc3)C(=O)N(C)CC(N)=O)CCOCC2)NC1=O [compound 490, DFNPEG2PEG2CO-Pen(3)-N-T-7MeW-K(Ac)-Pen(3)-TMAPF-2Nal-THP-K(Ac)-N-3Pya-Sar-CONH2] | 3.3 |
| CC(=O)N(C)CCCC[C@@H]1NC(=O)[C@H](Cc2c[nH]c3c(C)cccc23)NC(=O)[C@H](CC(C)C)NC(=O)[C@H](CC(=O)N(C)C)NC(=O)[C@@H](NC(=O)CCOCCOCC[N+](C)(C)C)C(C)(C)SSC(C)(C)[C@@H](C(=O)N[C@@H](Cc2ccc(OCCCCC[N+](C)(C)C)cc2)C(=O)N[C@@H](Cc2ccc3ccccc3c2)C(=O)NC2(C(=O)N[C@@H](CCCCN(C)C(C)=O)C(=O)N[C@@H](CC(N)=O)C(=O)N[C@@H](Cc3cccnc3)C(=O)N(C)CC(=O)N(C)C)CCOCC2)NC1=O [compound 493, cPEG3aCO-Pen(3)-N(N(Me)2)-L-7MeW-K(NMeAc)-Pen(3)-TMAPF-2Nal-THP-K(NMeAc)-N-3Pya-Sar-CON(Me)2] | 17 |
| CC(=O)N(C)CCCC[C@@H]1NC(=O)[C@H](Cc2c[nH]c3c(C)cccc23)NC(=O)[C@H]([C@@H](C)O)NC(=O)[C@H](CC(C)C)NC(=O)[C@@H](NC(=O)CCOCCOCC[N+](C)(C)C)C(C)(C)SSC(C)(C)[C@@H](C(=O)N[C@@H](Cc2ccc(OCCCCC[N+](C)(C)C)cc2)C(=O)N[C@@H](Cc2ccc3ccccc3c2)C(=O)NC2(C(=O)N[C@@H](CCCCN(C)C(C)=O)C(=O)N[C@@H](CC(N)=O)C(=O)N[C@@H](Cc3cccnc3)C(=O)N(C)CC(=O)N(C)C)CCOCC2)NC1=O [compound 495, cPEG3aCO-Pen(3)-1-T-7MeW-K(NMeAc)-Pen(3)-TMAPF-2Nal-THP-K(NMeAc)-N-3Pya-Sar-CON(Me)2] | 3.6 |
| CC(=O)NCCCC[C@@H]1NC(=O)[C@H](Cc2c[nH]c3c(C)cccc23)NC(=O)[C@H]([C@@H](C)O)NC(=O)[C@H](CC(N)=O)NC(=O)[C@@H](NC(=O)CCOCCOCC[N+](C)(C)C)C(C)(C)SSC(C)(C)[C@@H](C(=O)N[C@@H](Cc2ccc(OCCCCC[N+](C)(C)C)cc2)C(=O)N[C@@H](Cc2ccc3ccccc3c2)C(=O)NC2(C(=O)N[C@@H](CCC(=O)O)C(=O)N[C@@H](CC(N)=O)C(=O)N[C@@H](Cc3cncc(C)c3)C(=O)N(C)CC(N)=O)CCOCC2)NC1=O [compound 505, cPEG3aCO-Pen(3)-N-T-7MeW-K(Ac)-Pen(3)-TMAPF-2Nal-THP-E-N-5MePyridinAla-Sar-CONH2] | 3.6 |
| CC(=O)NCCCC[C@@H]1NC(=O)[C@H](Cc2c[nH]c3c(C)cccc23)NC(=O)[C@H]([C@@H](C)O)NC(=O)[C@H](CC(N)=O)NC(=O)[C@@H](NC(=O)[C@@H](CCCNC(=N)N)NC(=O)CCOCCOCC[N+](C)(C)C)C(C)(C)SSC(C)(C)[C@@H](C(=O)N[C@@H](Cc2ccc(OCCNC(=N)N)cc2)C(=O)N[C@@H](Cc2ccc3ccccc3c2)C(=O)NC2(C(=O)N[C@@H](CCC(=O)O)C(=O)N[C@@H](CC(N)=O)C(=O)N[C@@H](Cc3cncc(C)c3)C(=O)N(C)CC(N)=O)CCOCC2)NC1=O [compound 508, cPEG3aCO-r-Pen(3)-N-T-7MeW-K(Ac)-Pen(3)-AEF(G)-2Nal-THP-E-N-5MePyridinAla-Sar-CONH2] | 2.9 |
